Measured values: patent CN115947847A

Target: 表皮生长因子受体(epidermal growth factor receptor，EGFR) (human (human colorectal cancer cell line DiFi)) (UniProt P00533)
Test: cell-based or functional assay

生物活性 (DiFi细胞增殖抑制实验, CCK-8, OD450) (% of standard (Erbitux150819 = 100%)): 30
Substance: 重组抗EGFR单克隆抗体的酸性组分(HPLC-CEX保留时间小于10min的组分) (antibody)
